We go through 1 substance from US20020016341A1, “Heterocyclic thioester and ketone hair growth compositions and uses” (priority 1998, published 2002).

Protein sequences, listed by entry. Tags and fused reporters are not part of them.
UniProt P62942, whole entry, species assumed: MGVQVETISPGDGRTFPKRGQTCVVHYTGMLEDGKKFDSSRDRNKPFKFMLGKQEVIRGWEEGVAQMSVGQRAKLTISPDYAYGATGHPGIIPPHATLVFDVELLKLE

For the experiment, the target named is FKBP12 (Homo sapiens, UniProt P62942). Put plainly: Ki test: inhibition of peptidyl-prolyl isomerase (rotamase) activity, chymotrypsin-coupled assay. The note with it: apparent Ki. The class given is biochemical. From the text:
The inhibition of the prolyl peptidyl cis-trans isomerase activity of FKBP may be measured as an indicator of this affinity.
Inhibition of the peptidyl-prolyl isomerase (rotamase) activity of the compounds used in the inventive methods and pharmaceutical compositions can be evaluated by known methods described in the literature (Harding et al., Nature, 1989, 341:758-760; Holt et al. J. Am. Chem. Soc., 115:9923-9938).
The cis-trans isomerization of an alanine-proline bond in a model substrate, N-succinyl-Ala-Ala-Pro-Phe-p-nitroanilide, is monitored spectrophotometrically in a chymotrypsin-coupled assay, which releases paranitroanilide from the trans form of the substrate. The inhibition of this reaction caused by the addition of different concentrations of inhibitor is determined, and the data is analyzed as a change in first-order rate constant as a function of inhibitor concentration to yield the apparent K1 values.
In a plastic cuvette are added […] of ice cold assay buffer (25 mM HEPES, pH 7.8, 100 mM NaCl), 10 mL of FKBP (2.5 mM in 10 mM Tris-Cl pH 7.5, 100 mM NaCl, 1 mM dithiothreitol), 25 mL of chymotrypsin (50 mg/ml in 1 mM HCl) and […] of test compound at various concentrations in dimethyl sulfoxide. […]
The absorbance at 390 nm versus time is monitored for 90 seconds using a spectrophotometer and the rate constants are determined from the absorbance versus time data files.

On to “3-Phenyl-1-propyl (2S)-1-(3,3-dimethyl-1,2-dioxopentyl)-2-pyrrolidinecarbothioate [Compound 30]”, for which the Ki worked out at 11 nM.
